Measurements as given in patent US10849898B2, “Treatment of relapsed and/or refractory solid tumors and non-Hodgkin's lymphomas” (CELGENE QUANTICEL RESEARCH, INC., priority 2016, dated 2020).

Key:
[1] = 4-week oral toxicity study with 4-week recovery in mice (with toxicokinetics); conditions: 45 mg base/kg/dose QD×5/week; TK subgroup; 4 males and 1 female
[2] = mouse, in vivo

COc1ccc(-c2c(-c3ccc(C#N)c(F)c3)nc(N3CCC(N)CC3)n(C)c2=O)cc1F [Compound A, 4-[2-(4-amino-piperidin-1-yl)-5-(3-fluoro-4-methoxy-phenyl)-1-methyl-6-oxo-1,6-dihydro-pyrimidin-4-yl]-2-fluoro-benzonitrile]
animals sacrificed in moribund condition [1]: Five animals | reversibility of findings after 4-week treatment-free period [2]: partial to complete reversibility
